In patent US11858993B2, “Multi-specific antibodies with affinity for human A33 antigen and DOTA metal complex and uses thereof” (Memorial Sloan Kettering Cancer Center, priority 2015, dated 2024):

Assays:
[1] = system: A33-positive SW1222 xenografts; experiment: Dual-cycle PRIT therapy study
[2] = system: kidney, bone marrow, liver, and spleen; experiment: Toxicity: weight, appearance and anatomic pathology after PRIT; type: in vivo, mice
Method: For dual-cycle PRIT given at 10 and 17 days post tumor inoculation, there is marked response at all dose levels with complete responses observed in a dose dependent manner. […] Toxicity was determined by monitoring weight and overall appearance at least three times per week, as well as histopathologic assessment of liver, kidney, spleen and bone marrow by MSKCC Lab of Comparative Pathology.
For 3/3 mice, the kidney, bone marrow, and liver were normal.

[3] = system: SW1222 tumor; experiment: ^177Lu-DOTA-Bn dose titration, tumor uptake and saturation during PRIT; type: in vivo, mice; settings: PRIT+33.3 MBq ^177Lu-DOTA-Bn
Method: FIGS. 4A-4D show exemplary tumor uptake of ^177Lu-DOTA-Bn at 24 hours post injection as a function of radioactivity in the treatment of mice bearing a human colon cancer xenograft (SW1222); (FIG. 4A) uptake of amounts of ^177Lu-DOTA-Bn in various tissues. (FIG. 4B) Uptake of amounts of ^177Lu-DOTA-Bn in SW1222 tumors; (FIG. 4C) activity of ^177Lu-DOTA-Bn in SW1222 tumors and kidneys 24 hours post injection per amount of injected ^177Lu-DOTA-Bn; (FIG. 4D) pmoles of ^177Lu-DOTA-Bn binding in the tumor 24 hours post injection per amount of injected ^177Lu-DOTA-Bn. Saturation was achieved after approximately 40 MBq of injected activity.
As described herein, the present inventors provide an improved multi-step PRIT method in immunocompromised mice bearing s.c. A33-positive human colorectal tumors (SW1222) using a bispecific antibody termed huA33-C825. Such methodology includes i.v. injection of various doses of huA33-C825 and a dextran-based CA, followed with injection of ^177Lu-DOTA-Bn theranostic (i.e., diagnostic and therapeutic) hapten for simultaneous scintigraphic imaging and radioimmunotherapy. […]

[4] = two cycles of PRIT+11.1 MBq, five days following treatment
[5] = two cycles of PRIT+55.5 MBq, seven to nine weeks following treatment

Substance: huA33-C825: bispecific antibody: humanized A33 IgG1 with murine C825 anti-DOTA-Bn scFv linked to the light chain C-terminus
- tumor size at time of sacrifice (single mouse) ([1]; 2 cycles of PRIT+33.3 MBq (total 66.6 MBq)): < 10 mm^3
- estimated tumor dose ([1]; 2 cycles of PRIT+33.3 MBq ^177Lu-DOTA-Bn (total 66.6 MBq)): 3600-4400 cGy
- estimated tumor dose ([1]; two cycles of PRIT+11.1 MBq ^177Lu-DOTA-Bn (total 22.2 MBq)): 1460 cGy
- average recurrence time to 500 mm^3 ([1]; two cycles of PRIT+33.3 mCi ^177Lu-DOTA-Bn (total 66.6 MBq)): 27 ± 26 days
- average recurrence time to 500 mm^3 ([1]; two cycles of PRIT+55.5 MBq ^177Lu-DOTA-Bn (total 111 MBq)): 40 ± 6 days
- estimated tumor dose ([1]; two cycles of PRIT+55.5 mCi ^177Lu-DOTA-Bn (total 111.0 MBq), based on peak tumor uptake of 3% ID/g): 2580 cGy
- mice with liver extramedullary hematopoiesis [2, 4]: 1/3
- mice with normal kidney and bone marrow [2, 4]: 3/3
- mice with spleen (white pulp) follicular lymphoid hyperplasia [2, 4]: 1/3
- mice with normal kidney, bone marrow, and liver [2, 5]: 3/3
- mice with spleen (white pulp) follicular lymphoid hyperplasia [2, 5]: 1/3
- estimated peak tumor uptake [3]: 7 % ID/g
